Earlier results on 1 substance are cited in patent US20020131994A1, “Non-irritating formulation for the transdermal delivery of substances” (priority 2001, published 2002).

Take insulin: the “Standard clearance time for insulin I.V.” value was less than 20 min.
